# From PubChem BioAssay AID492956 (The Scripps Research Institute Molecular Screening Center, 2010)
# The entries are a selection whose mix differs from that of the whole data set. Activity calls are given as the source filed them.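 Rule for the calls: active = inhibition above the mean over all tested compounds plus 3 SD (cut at about 30% in these data); inactive = the rest.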
# Target: Platelet-activating factor acetylhydrolase 2, cytoplasmic (Homo sapiens) (UniProt Q99487)
# Experiment: inhibition of cytoplasmic PAF acetylhydrolase 2 – biochemical, fluorescence polarization, human, primary screen (AID 492956);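 note: inhibitors block probe labeling of enzyme so polarization drops; 0% = enzyme with DMSO and 100% = wells lacking PAFAH2 protein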
# Details: recombinant PAFAH2, FP-rhodamine activity probe, at 3.39 µM, stronger effect = higher value
row,SMILES,inhibition
1,CCOP(=O)(Nc1cccc2ccccc12)OCC,inactive: 2.59%
2,COc1cc(C2NCCC3(OCCO3)C2(C)C)cc(OC)c1OC (centres undefined),inactive: -7.99%
3,Nc1cccc2c([As](=O)(O)O)cccc12,inactive: 21.4%
4,Cc1ccc(NCCc2c([N+](=O)[O-])cc([N+](=O)[O-])cc2[N+](=O)[O-])cc1,inactive: -3.38%
5,CCCOP(=S)(Nc1nc(N)cc(=O)[nH]1)OCCC,inactive: 2.46%
6,O=[As](O)(c1cccc(O)c1)c1cccc(O)c1,inactive: -7.18%
7,Cc1cccc(OCC(=O)OC2CN3CCC2CC3)c1 (centres undefined),inactive: -0.79%
8,O=C(OC1CN2CCC1CC2)c1ccc(Cl)cc1 (centres undefined),inactive: 5.99%
9,CS(=O)(=O)c1ccc(Cl)c(NC(=O)COC(=O)C(O)(c2ccccc2)c2ccccc2)c1,inactive: -0.76%
10,COc1cc(C(=O)NCC2(N3CCOCC3)CCCCC2)cc(Cl)c1OC(C)C,inactive: -1.48%
11,O=[As](O)(O)c1cccnc1,inactive: -2.26%
12,CCOP1(=S)c2c(C)nn(CCC#N)c2N=C(c2ccc(F)cc2)N1C (centres undefined),inactive: -0.66%
13,CN(C(=O)Cc1ccccc1)[C@@H]1CC[C@]2(CCCO2)C[C@H]1N1CCCC1,inactive: -26.8%
14,N#CCCN(C(=O)COC(=O)C(O)(c1ccccc1)c1ccccc1)c1ccc(F)cc1,inactive: -2.89%
15,CN(C(=O)Cc1ccc(Cl)c(Cl)c1)[C@H]1CC[C@@]2(CCCO2)C[C@@H]1N1CCCC1,inactive: 3.51%
16,CN(C)C(=O)c1cc([N+](=O)[O-])cc2c1-c1c(cc([N+](=O)[O-])cc1[N+](=O)[O-])C2=O,inactive: 10.1%
17,O=[N+]([O-])c1ccc2c(c1)nnn2O,inactive: 6.61%
18,NC(=O)Nc1ccc([As](=O)(O)O)cc1,inactive: -3.91%
19,Nc1ccccc1[As](=O)(O)c1ccccc1,inactive: -1.21%
20,O=C(O)COc1ccc([As](=O)(O)O)cc1[N+](=O)[O-],inactive: 2.55%
21,O=P(Nc1nccs1)(c1ccccc1)c1nc2ccccc2s1 (centres undefined),inactive: 2.27%
22,O=P(Nc1nccs1)(Oc1ccccc1)Oc1ccccc1,inactive: -8.11%

row,SMILES,inhibition
1,CCOP1(=S)c2c(C)nn(CCC#N)c2N=C(c2ccccc2F)N1C (centres undefined),inactive: 1.81%
2,CS(=O)(=O)c1cc([N+](=O)[O-])c2no[n+]([O-])c2c1,inactive: -0.4%
3,Nc1cccc([As](=O)(O)c2ccccc2)c1,inactive: -6.47%
4,O=P1(Nc2ccc(Br)cn2)COc2ccccc2OC1,inactive: 3.14%
5,NS(=O)(=O)c1cccc(NC(=O)COC(=O)C(O)(c2ccccc2)c2ccccc2)c1,inactive: -11.4%
6,O=[As](O)(c1cccs1)c1cccs1,inactive: 2.86%
7,Cc1ccc(OCC(=O)OC2CN3CCC2CC3)cc1 (centres undefined),inactive: 1.34%
8,O=P1(Nc2ncccn2)COc2ccccc2OC1,inactive: 2.6%
9,CN(C)C1(CNC(=O)c2ccc(S(C)(=O)=O)cc2)CCCCC1,inactive: -3.04%
10,CCCC1OP(=O)(Nc2ccccc2)OCC1CC (centres undefined),inactive: -0.95%
11,O=C(/C=C/c1ccccc1)OC1CN2CCC1CC2 (centres undefined),inactive: 6.14%
12,CC1CCC(C(C)C)C(OP(=O)(Nc2ccccn2)c2ccccc2)C1 (centres undefined),inactive: 3.57%
13,Cc1ccc(C(=O)OC2CN3CCC2CC3)cc1 (centres undefined),inactive: -0.14%
14,Cc1nn(-c2ccccc2)c2c1P(=O)(N1CCOCC1)N(C)C(c1ccccc1)=N2 (centres undefined),inactive: 2.15%
15,CC(C)/C=N\N=C(\N)N[N+](=O)[O-],inactive: 7.84%
16,CN(C(=O)Cc1ccc(Cl)c(Cl)c1)[C@@H]1CCCC[C@H]1N1CCCC1,inactive: 1.48%
17,CC1(CBr)Cn2c(nc3ccccc3c2=O)S1 (centres undefined),inactive: -5.93%
18,COc1ccccc1CNC(=O)COC(=O)C(O)(c1ccccc1)c1ccccc1,inactive: -2.44%
19,CC(C)(C)C(=O)NC(Sc1ncccn1)C(Cl)(Cl)Cl (centres undefined),inactive: 1.79%
20,Clc1n[nH]nc1-c1nn[nH][15n]1,inactive: -0.25%
21,CCOP(=O)(NC(=NC(C)c1ccccc1)NC(C)c1ccccc1)OCC (centres undefined),inactive: 2.9%
22,O=P1(Nc2ccccn2)COc2ccccc2OC1,inactive: 1.69%

row,SMILES,inhibition
1,CCC1=CC2Cc3nc4ccc(Cl)cc4c(N)c3C(C1)C2 (centres undefined),inactive: 5.92%
2,CCOP(=O)(Nc1ccc(C)cn1)OCC,inactive: -1.19%
3,CCC(C)N(CC(C)C)C(=S)SC(NC(C)=O)C(Cl)(Cl)Cl (centres undefined),inactive: 4.09%
4,O=C(OC1CN2CCC1CC2)c1cccc([N+](=O)[O-])c1 (centres undefined),inactive: 2.65%
5,CCOC(=O)c1ccc(NC(=O)C(C)(CCl)SC)cc1 (centres undefined),inactive: 2.05%
6,O=C(Nc1ccncc1[N+](=O)[O-])c1ccc([N+](=O)[O-])cc1[N+](=O)[O-],inactive: -6.34%
7,O=C(COc1ccccc1)OC1CN2CCC1CC2 (centres undefined),inactive: -0.43%
8,COP1(=S)c2c(C)nn(CCC#N)c2N=C(c2ccc(F)cc2)N1C (centres undefined),inactive: 0.11%
9,O=P(Nc1ccccn1)(c1cccc2ccccc12)c1cccc2ccccc12,inactive: 4.6%
10,Cc1cc(SC(NC=O)C(Cl)(Cl)Cl)ncn1 (centres undefined),inactive: -8.46%
11,O=[N+]([O-])c1ccc(Nc2ccc(Oc3ccc([N+](=O)[O-])cc3[N+](=O)[O-])cc2)c([N+](=O)[O-])c1,inactive: -5.63%
12,CCOC(=O)Nc1cccc([As](=O)(O)O)c1,inactive: 3.07%
13,Cc1cc(SC(NC(=O)c2ccccc2)C(Cl)(Cl)Cl)nc(C(C)C)n1 (centres undefined),inactive: 0.14%
14,CCCCOc1ccc(C(=O)NCC2(N3CCCCC3)CCCCC2)cc1OC,inactive: -4.99%
15,CCOC(=O)Nc1ccc([As](=O)(O)O)c(O)c1,inactive: 2.51%
16,CC1CCNP(=O)(N(CCCl)CCCl)O1 (centres undefined),inactive: 4.59%
17,O=[N+]([O-])c1cc([N+](=O)[O-])c(-c2ccn[nH]2)s1,inactive: 1.12%
18,O=C(OC1CN2CCC1CC2)c1cccc2[nH]cnc12 (centres undefined),inactive: -9.24%
19,CCN(CC)C(=S)SC(NC=O)C(Cl)(Cl)Cl (centres undefined),inactive: -2.15%
20,ClCCSc1nnc(-c2cccnc2)o1,inactive: -2.12%
